This is an account of results in patent US8309534B2, “Compositions comprising a GPR109 ligand for treating disorders of the digestive tract and/or cancer” (Medical College of Georgia Research Institute, Inc., priority 2007, dated 2012).

The subject of the test is KM12L4 cells transfected with GPR109A cDNA. Conditions: 0.5 mM, 24 h.

In the case of `O=C(O)c1cccnc1` [nicotinate, nicotinic acid], the “change in expression of genes involved in apoptosis and cell cycle” value was “causes marked effects on the expression of various genes”.
